For one assay, the target named is PKMYT1 enzyme (Homo sapiens, UniProt Q99640). Briefly: PKMYT1 enzyme inhibition activity, ADP-GLO method. The format is biochemical. To be noted: read-out: ADP-GLO IC50, PKMYT1 enzyme 10 nM, ATP 5 µM, 37°C 90 minutes.
Another assay relates to HCC1569 cells. Briefly: Cytostatic activity, CTG assay (HCC1569). The conditions noted are these: 5 days.
[1] abbreviates: tested form: free base, mixture of the atropisomers s.
Setting [2] is: tested form: free base, single atropisomer, dextrorot.

By UniProt entry, the sequences of proteins in these tests, tags left out.
UniProt Q99640, whole entry: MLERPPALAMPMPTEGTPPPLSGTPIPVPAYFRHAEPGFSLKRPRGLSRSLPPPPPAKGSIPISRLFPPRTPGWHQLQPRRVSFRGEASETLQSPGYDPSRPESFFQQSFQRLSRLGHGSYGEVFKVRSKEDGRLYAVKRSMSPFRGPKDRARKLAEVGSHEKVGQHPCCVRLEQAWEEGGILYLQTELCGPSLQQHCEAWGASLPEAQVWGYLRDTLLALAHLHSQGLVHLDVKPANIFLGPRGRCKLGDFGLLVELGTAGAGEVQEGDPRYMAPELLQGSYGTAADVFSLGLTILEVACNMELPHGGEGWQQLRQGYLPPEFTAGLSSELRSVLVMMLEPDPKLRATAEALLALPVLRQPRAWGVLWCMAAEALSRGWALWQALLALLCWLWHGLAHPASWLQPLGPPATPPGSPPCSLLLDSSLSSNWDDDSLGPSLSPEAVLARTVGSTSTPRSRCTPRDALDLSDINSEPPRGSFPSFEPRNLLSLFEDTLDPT

For orientation: pIC50 means the IC50 on a negative log10 scale, so that one unit is a factor of ten.

pIC50: −log10 of the molar value. Read-outs that look alike come from different tables or passages of the source.

Regarding `[2H]C([2H])([2H])c1cc(F)c(O)c(C([2H])([2H])[2H])c1-n1c(N)c(C(N)=O)c2cc(Br)c(C([2H])([2H])[2H])nc21`, the pIC50 on PKMYT1 enzyme (tested form: free base) is 8.33.

With `Cc1nc2c(cc1-c1ccccc1)c(C(N)=O)c(N)n2-c1c(C)c(O)cc(F)c1C`, the pIC50 on PKMYT1 enzyme was 7.50.

For `Cc1nc2c(cc1Cl)c(C(N)=O)c(N)n2-c1c(C)c(O)cc(F)c1C`, the pIC50 in the assay with HCC1569 cells (setting [1]) is 7.64; in the assay on HCC1569 cells (setting [2]) it was 7.82; at PKMYT1 enzyme (setting [1]) it was 8.52; at PKMYT1 enzyme (setting [2]) it was 8.75; at PKMYT1 enzyme (tested form: free base, single atropisomer, levorotat), 6.74.

Turning to `Cc1nc2c(cc1-c1ccnn1C)c(C(N)=O)c(N)n2-c1c(C)c(O)cc(F)c1C`, the pIC50 is 7.19 in the assay with HCC1569 cells and 7.58 at PKMYT1 enzyme.

As for `COc1cnc2c(c1)c(C(N)=O)c(N)n2-c1c(C)c(O)cc(F)c1C`, the pIC50 with HCC1569 cells was 7.38; on PKMYT1 enzyme it was 8.71.

Consider `Cc1ccc(O)c(C)c1-n1c(N)c(C(N)=O)c2cc(NS(=O)(=O)N(C)C)c(C)nc21`, for which, on PKMYT1 enzyme (tested form: free base, axial configuration not given), the pIC50 was 7.90.

With `[2H]C([2H])([2H])c1cc2c(C(N)=O)c(N)n(-c3c(C)cc(F)c(O)c3C)c2nc1C`, on PKMYT1 enzyme (tested form: free base), the negative-log IC50 (pIC50) is 8.35.

`C=Cc1cnc2c(c1)c(C(N)=O)c(N)n2-c1c(C)c(O)cc(F)c1C`: the results for the pIC50 with HCC1569 cells and at PKMYT1 enzyme were 7.62 and 8.43, respectively.

Turning to `Cc1nc2c(cc1-c1cncs1)c(C(N)=O)c(N)n2-c1c(C)c(O)cc(F)c1C`, the values for the pIC50 in the assay with HCC1569 cells (tested form: free base) and on PKMYT1 enzyme (tested form: free base) were 7.72 and 8.13, respectively.

For the compound `[2H]C([2H])([2H])c1nc2c(cc1Br)c(C(N)=O)c(N)n2-c1c(C)cc(F)c(O)c1C`, the pIC50 on PKMYT1 enzyme (tested form: free base) was 8.54; at PKMYT1 enzyme (tested form: free base, (+)-atropisomer), 8.74.

Turning to `Cc1cc2c(C(N)=O)c(N)n(-c3c(C)c(O)cc(F)c3C)c2nc1C1CC1`, the pIC50 on PKMYT1 enzyme was 6.76.

For `Cc1cc(F)c(O)c(C)c1-n1c(N)c(C(N)=O)c2cc(F)c(C)nc21`, the pIC50 on PKMYT1 enzyme (tested form: free base) is 7.89.

Consider `Cc1cc(F)c(O)c(C)c1-n1c(N)c(C(N)=O)c2c(C)c3c(nc21)CCC3`, for which, at PKMYT1 enzyme (tested form: free base), the pIC50 was 6.67.

Take `[2H]C([2H])([2H])c1nc2c(cc1C(F)(F)F)c(C(N)=O)c(N)n2-c1c(C)cc(F)c(O)c1C([2H])([2H])[2H]`: on PKMYT1 enzyme (tested form: free base), the pIC50 is 7.90.

The values above are taken from patent EP4624471A1, “PKMYT1 INHIBITOR, PREPARATION METHOD THEREFOR, AND PHARMACEUTICAL COMPOSITION AND USE THEREOF” (Shanghai Qilu Pharmaceutical Research and Development …, priority 2022, dated 2024).
